The test system of this experiment is 4T1-1 2B mammary carcinoma cells. Briefly: Antitumor adjuvant effect: intratumoral injection into bilateral mammary fat pad tumors.

These results are taken from patent publication US20180153984A1, “ADJUVANT PARTICLES COMPRISING ADENOSINE RECEPTOR ANTAGONISTS” (The Regents of the University of California, priority 2015, published 2018).

Take `Nc1nc2c(cnn2CCc2ccccc2)c2nc(-c3ccco3)nn12` [SCH58261, 5-Amino-7-(2-phenylethyl)-2-(2-furyl)-pyrazolo(4,3-e)-1,2,4-triazolo(1,5-c)pyrimidine]: the tumor growth entry (IP administration of 1 mg/kg) was “minimally reduced tumor growth”. Also, the “efficacy of IT injection relative to SCH-particles” value (IT injection of free antagonist) is on record as “much less effective”.
